Measurements from patent US11180452B2, “Methods and compositions for selectively inhibiting pathogenic microbes” (priority 2019, dated 2021).

Test system: branched chain amino acid synthesis pathway gene ILVB
Assay: RNA sequencing / transcriptomic and metabolic studies

Row | SMILES | mechanism of action by transcriptomic and metabolic studies
1 | Brc1ccc2[nH]cc(Sc3ccccc3Br)c2c1 [Compound 174I, 5-bromo-3-((2-bromophenyl)thio)-1H-indole] | branched chain amino acid biosynthesis inhibition
2 | Nc1ccccc1Sc1c[nH]c2ccc(Br)cc12 [Compound 174M, 2-((5-bromo-1H-indol-3-yl)thio)aniline] | branched chain amino acid biosynthesis inhibition
